Source: US8334413B2, “Topical compositions and methods for epithelial-related conditions” (Signum Biosciences, Inc., priority 2004, dated 2012)

What was measured:
AA induced MPO = test: Arachidonic acid-induced neutrophil infiltration, MPO assay; type: in vivo, mice; conditions: AA 4 mg/40 μl acetone, MPO at 5 hr
Procedure: The effect of the inventive compositions on arachidonic acid (AA)-induced inflammation was assayed using the same protocols as above, but with the following modifications. AA was applied to both ears at 4 mg/40 μl acetone. The ears were harvested at 1 hr to measure edema, the maximum response time, and at 5 hr for inflammatory neutrophil infiltration as measured by an MPO assay.

mouse ear = test: AFC in acetone alone, mouse ear edema (irritancy); type: in vivo, mice; conditions: topical
Procedure: A range of from 5 mg to 32 mg AFC, a polyisoprenyl-protein inhibitor compound, was mixed with 20 μl acetone to produce an inventive AFC composition. Each concentration was applied with the aid of a micropipetter onto the right ear of each of six mice so that 10 μl of each of the concentrations of the AFC inventive compositions were applied to an inner ear surface and 10 μl was applied to an outer ear surface of the right ear. The AFC inventive compositions were spread evenly with a pipette tip. Each contralateral ear was treated with only acetone in the same manner. The mice then were returned to their cages. After 5.5 hours, mice were sacrificed and 6 mm punches were taken from each ear and weighed. Edema response was expressed as the percent increase in the treated ear's weight over the untreated (acetone, vehicle only) ear.

## CC(=O)N[C@@H](CSCC=C(C)CCC=C(C)CCC=C(C)C)C(=O)O (stereo in doubt) [AFC, N-acetyl-S-farnesylcysteine]
AA induced MPO
  ED50 against AA-induced MPO relative to TPA-induced: 10 fold
  activity against AA-induced granulocyte infiltration relative to TPA-induced: 50%
Mouse ear
  dose not inducing edema relative to doses having efficacy against chemically-induced edema: 60 fold
